The conditions of this data set: in vivo. On the procedure: All subjects with a diagnosis of C-IBS presented for a fasting breath test after a 12 hour fast. Only subjects with methane level of >3 ppm on a single breath sample were enrolled. Subjects then completed a baseline study questionnaire and a baseline audiogram. […] Subjects were then asked to complete a daily stool diary for two weeks with weekly questionnaires for overall symptom severity. Subjects were eligible for randomization only if they were confirmed to have <3 CSBMs per week during stool diary.
The randomization scheme was set in blocks of 4 and each site received batches of drug in multiples of 4 to balance each study site into blocks. The allocation was concealed. The randomization was done by the drug company with a tracking list provided to the study site pharmacy in a concealed envelope. The pharmacy, investigators and patients were blinded. During the 14 days of treatment, subjects completed weekly symptom questionnaires (2 questionnaires over 2 weeks).
Baseline qualitative data and side effect rates were compared by Fisher's Exact Test. Quantitative baseline data was normal so were compared by t-Test. Data were expressed as mean±SD. The primary endpoint was also normally distributed and compared by t-test.

On to neomycin, for which the “adverse event reported during the study” value is listed as “felt “unwell””.

Values taken from US20160158262A1, “METHODS OF TREATING IRRITABLE BOWEL SYNDROME” (CEDARS-SINAI MEDICAL CENTER, priority 2013, published 2016).
